Data reported in ChEMBL document CHEMBL5620426, “Discovery of 3-(1H-benzo[d]imidazole-2-yl)-1H-pyrazol-4 -amine derivatives as novel and potent syk inhibitors for the treatment of hematological malignancies” (Eur J Med Chem, 2023).

Target: Tyrosine-protein kinase SYK (Homo sapiens, UniProt P43405)
Assay: Inhibition of Syk (unknown origin) preincubated for 20 mins followed by 33P-gamma-ATP measured after 120 mins by HotSpot assay

IC50: 10.3 nM
Compound: c1cn2cc(-c3ccc4cn[nH]c4c3)nc(Nc3ccc(N4CCOCC4)cc3)c2n1 [ENTOSPLETINIB]
